The assay has as its system MDA-MB-231 cells. Briefly: CellTiter-Glo cell viability, MDA-MB-231. In kind it is cell-based. The following applies: EGF 5 nmol, exosomes at concentration gradient, 4 days; P<0.01, Tukey test. Here is the method:
MDA-MB-231 and HCC827 cells (ATCC) at well growth state were taken and diluted to a concentration of 5×10^3/ml, then inoculated in a 96-well cell culture plate at 200 μl/well, and cultivated in an incubator at 37° C. and 5% CO2 for 24 h. Then EGF with a final concentration of 5 nmol and exosomes with a concentration gradient were added to the culture, and the cetuximab antibody (purchased from Merck) was adopted as a control. Four days later, the cell viability was determined with CellTiter-Glo Luminescent Cell Viability Assay kit (Promega, Madison, Wis.).
(Cellular ATP, detected with luciferase, serves as a proxy for viable cell number.)

Turning to cetuximab, the “inhibition of viability of MDA-MB-231 cells” value is reported as “naturally resistant”.
